Measurements as given in patent US10500274B2, “Methods for reducing viral load in HIV-1 infected patients” (CytoDyn Inc., priority 2008, dated 2019).

Key:
[1] = system: HIV-1JR-FL envelope-mediated membrane fusion; conditions: in combination with PRO 140
[2] = system: reporter viruses pseudotyped with HIV-1JR-FL envelope (U87-CD4-CCR5 cells); conditions: in combination with PRO 140; both HIV-1JR-FL and HIV-1SF162 pseudoviruses, 50% and 90% inhibition

SMILES: COC[C@@H](c1ccc(C(F)(F)F)cc1)N1CCN(C2(C)CCN(C(=O)c3c(C)ncnc3C)CC2)C[C@@H]1C [SCH-D, 1-[(4,6-dimethyl-5-pyrimidinyl)carbonyl]-4-[4-[2-methoxy-1(R)-4-(trifluoromethyl)phenyl]ethyl-3(S)-methyl-1-piperazinyl]-4-methylpiperidine]
- CI values (50% and 90% inhibition) [1]: Potent synergy
- CI values [2]: potently synergized
